From ChEMBL document CHEMBL5727998, “8-amino-2-oxo-1,3-diaza-spiro-[4.5]-decane derivatives” (2020)
Where “and” joins values, the source holds several entries; their conditions need not be identical. Equal values may be shown once.

Key:
Mu-type opioid receptor = Mu-type opioid receptor (Homo sapiens, UniProt P35372); experiment: Receptor Binding Assay: The hMOP receptor binding assay was performed as homogeneous SPA-assay (scintillation proximity assay) using the assay buffer 50 mM TRIS-HCl (pH 7.4) supplemented with 0.052 mg/ml bovine serum albumin (Sigma-Aldrich Co. St. Louis. Mo.). The final assay volume (250 ul/well) included 1 nM of [N-allyl-2.3-3H]naloxone as ligand (PerkinElmer Life Sciences. Inc. Boston. Mass. USA
Nociceptin receptor = Nociceptin receptor (Homo sapiens, UniProt P41146); experiment: Receptor Binding Assay: The hNOP receptor binding assay was performed as homogeneous SPA-assay (scintillation proximity assay) using the assay buffer 50 mM TRIS-HCl. 10 mM MgCl2. 1 mM EDTA (pH 7.4). The final assay volume (250 μl/well) included 0.5 nM of [leucyl-3H]nociceptin as ligand (PerkinElmer Life Sciences. Inc. Boston. Mass. USA). and either test compound in dilution series or 1 μM unlabell

For `CN(C)[C@]1(c2ccccc2)CC[C@]2(CC1)CN(CC1(O)CCS(=O)(=O)CC1)C(=O)N2CC1CCC1`, the Ki (Mu-type opioid receptor) was 125 nM and 124 nM and the Ki (Nociceptin receptor) was 4 nM.

`CN(C)[C@]1(c2ccccc2)CC[C@]2(CC1)CN(CC1(O)CCS(=O)(=O)CC1)C(=O)N2CC1CC1` was tested, and the Ki (Mu-type opioid receptor) was 1810 nM and 495 nM.

Work on `CN(C)[C@]1(c2ccccc2)CC[C@]2(CC1)CN(C1CCN(c3cncnc3)CC1)C(=O)N2CC1(O)CCC1` yielded a Ki (Mu-type opioid receptor) of 630 nM and a Ki (Nociceptin receptor) of 8 nM.

Work on `CN(C)[C@]1(c2ccccc2)CC[C@]2(CC1)CN(CC(C)(C)C#N)C(=O)N2CC1(F)CC1` yielded a Ki (Nociceptin receptor) of 690 nM.

In the case of `CN(C)[C@]1(c2ccccc2)CC[C@]2(CC1)CN(CCN1CCOCC1)C(=O)N2CC1(O)CCC1`, the Ki (Mu-type opioid receptor) is reported as 206 nM and 643 nM and the Ki (Nociceptin receptor) is reported as 155 nM and 26 nM and 57 nM.

For `CN(C)[C@]1(c2ccccc2)CC[C@@]2(CC1)CN(CC(C)(C)C#N)C(=O)N2CC1CC1`, the Ki (Mu-type opioid receptor) was 230 nM and the Ki (Nociceptin receptor) was 24 nM.

In the case of `CN(C)[C@]1(c2ccccc2)CC[C@]2(CC1)CN(C1CCN(c3cncnc3)CC1)C(=O)N2CC1CC1`, the Ki (Mu-type opioid receptor) is reported as 1.76 µM [middle of 4 runs].

For `CN(C)[C@]1(c2cccc(F)c2)CC[C@]2(CC1)CN(CC1(O)CCS(=O)(=O)CC1)C(=O)N2CC1(O)CCC1`, the Ki (Mu-type opioid receptor) was 330 nM and 96 nM.

`CN(C)[C@]1(c2ccccc2)CC[C@]2(CC1)CN(CC1CCS(=O)(=O)CC1)C(=O)N2CC1(O)CCC1` was tested, and the Ki (Mu-type opioid receptor) was 245 nM and 185 nM and 1290 nM.

`CN(C)[C@]1(c2ccccc2)CC[C@]2(CC1)CN(CC1(O)CCS(=O)(=O)CC1)C(=O)N2CC1(O)CCC1` was tested, and the Ki (Mu-type opioid receptor) was 1060 nM and 415 nM and the Ki (Nociceptin receptor) was 19 nM and 17 nM.

For `CN(C)[C@]1(c2ccccc2)CC[C@]2(CC1)CN(CCC1(O)CCS(=O)(=O)CC1)C(=O)N2CC1(O)CCC1`, the Ki (Mu-type opioid receptor) was 415 nM and 4140 nM.
